{
  "source": "patent EP4847622A1",
  "about": "“METHOD FOR PRODUCING VIRAL VECTOR” (dated 2026)",
  "key": {"[1]": {"tested_on": "AAV producer cells", "assay": "Experiment 4: Full rate of purified AAV by anion exchange high performance liquid chromatography", "procedure": "The AAV was extracted and purified from the sample on Day 7 in Experiment 3 using an AAVpro Purification Kit (Takara Bio Inc., 6675). For the sample solution after the purification, the area value of each of the peaks of the Empty and Full particles of AAV was measured using high performance liquid chromatography, and the Full rate (the ratio of the amount of capsids containing the full-length gene to the total amount of capsids) was calculated. An anion exchange column was used as a separation column, and a fluorescence detector (excitation: 280 nm, detection: 348 nm) was used for detection."}, "[2]": {"tested_on": "AAV producer cells", "assay": "Experiment 2: AAV titer by ddPCR in high-density cell culture solution after perfusion culture", "settings": "30 × 10^6 cells/mL, doxycycline 5 µg/mL, CI-994 conc: 7.5 µM, 72 hours; untreated sample 1.1 × 10^12 vg/mL", "text": "A plasmid (SEQ ID NO: 1 and SEQ ID NO: 2) was introduced into HEK293 cells (Thermo Fisher Scientific, A49784) adapted to growth in suspension culture, and a stable expression cell line (AAV producer cell) in which the sequence 1 (including a reverse tetracycline-controlled transactivator (rtTA) gene, a Rep gene, a Cap gene, an E2 gene, an E4 gene, and a GFP gene (as a GOI) sandwiched between ITR sequences, in which the Rep gene, the Cap gene, the E2 gene, and the E4 gene are under the control of a promoter having a tetracycline response element (TRE) sequence) was incorporated into the chromosome of the cell was cultured in a BalanCD HEK293 medium (FUJIFILM Irvine Scientific, 551-34231). […]\n(§1) The HEK cell culture solution, which had been cultured for 72 hours after the gene transfer under the conditions of 37°C and 8% CO2, was collected, and the cells were disrupted by freezing and thawing at -80°C. […] Measurement was performed using a droplet reader, and the AAV genomic titer (vg/mL) was calculated.\nThe AAV producer cells were cultured at 30 × 10^6 cells/mL by perfusion culture in a reactor, and then 24 mL of the culture solution was transferred to a 125 mL flask. […] After the drug addition, the cells were recovered after the treatment for 72 hours, and the AAV titer was measured."}, "[3]": {"tested_on": "AAV producer cells", "assay": "Experiment 3: AAV titer in cell culture solution continuously collected every 24 hours for 7 days", "settings": "30 × 10^6 cells/mL or more kept for 7 days, doxycycline 5 µg/mL, CI-994 7.5 µmol/L, 72 hours", "procedure": "280 mL of a BalanCD HEK293 medium (FUJIFILM Irvine Scientific, 551-34231) was seeded with AAV producer cells suspended at 0.5 × 10^6 cells/mL in a 0.5 L reactor (Biott Corporation). The perfusion culture was performed using a BalanCD HEK293 medium (FUJIFILM Irvine Scientific, 551-34231) and a BalanCD HEK293 Feed (FUJIFILM Irvine Scientific, 550-34245) as a perfusion medium.\nas §1, with “-80°C. Then, the supernatant was collected by centrifugation at 13,800 ×g, 2 mmol/L (final concentration) MgCl2, and 25 U/mL Benzonase was added thereto, and a reaction was carried out at 37°C for 2 hours to digest gDNA (genomic DNA) and residual plasmid.” for “-80°C.”\nAs in Experiment 2, the AAV producer cells were cultured at 30 × 10^6 cells/mL or more by perfusion culture in a reactor, and the cells were collected into a flask to examine the production of AAV. […] After the drug addition, the cells were recovered after the treatment for 72 hours, and the AAV titer was measured."}},
  "data": [
    {"smiles": "CC(=O)Nc1ccc(C(=O)Nc2ccccc2N)cc1", "values": [
      {"measurement": "effect on the Full rate", "setting": "[1]; Day 7 sample of Experiment 3, CI-994-treated versus untreated", "result": "improvement effect on the Full rate"},
      {"measurement": "Full rate (%)", "setting": "[1]; Day 7 sample of Experiment 3, ratio of capsids containing the full-length gene to total capsids, without CI-994: 23.8", "result": 30.8, "unit": "%"},
      {"measurement": "AAV titer", "setting": "[2]", "result": "2.2 × 10^12 vg/mL"},
      {"measurement": "AAV titer compared with the CI-994-untreated sample", "setting": "[3]", "result": "higher titer"}
    ]}
  ]
}
